Protein sequences, listed by entry. Tags and fused reporters are not part of them. Lines headed by an entry give the natural chain unless they say otherwise; changes in a name come on top.
UniProt Q00975, whole entry, looked up: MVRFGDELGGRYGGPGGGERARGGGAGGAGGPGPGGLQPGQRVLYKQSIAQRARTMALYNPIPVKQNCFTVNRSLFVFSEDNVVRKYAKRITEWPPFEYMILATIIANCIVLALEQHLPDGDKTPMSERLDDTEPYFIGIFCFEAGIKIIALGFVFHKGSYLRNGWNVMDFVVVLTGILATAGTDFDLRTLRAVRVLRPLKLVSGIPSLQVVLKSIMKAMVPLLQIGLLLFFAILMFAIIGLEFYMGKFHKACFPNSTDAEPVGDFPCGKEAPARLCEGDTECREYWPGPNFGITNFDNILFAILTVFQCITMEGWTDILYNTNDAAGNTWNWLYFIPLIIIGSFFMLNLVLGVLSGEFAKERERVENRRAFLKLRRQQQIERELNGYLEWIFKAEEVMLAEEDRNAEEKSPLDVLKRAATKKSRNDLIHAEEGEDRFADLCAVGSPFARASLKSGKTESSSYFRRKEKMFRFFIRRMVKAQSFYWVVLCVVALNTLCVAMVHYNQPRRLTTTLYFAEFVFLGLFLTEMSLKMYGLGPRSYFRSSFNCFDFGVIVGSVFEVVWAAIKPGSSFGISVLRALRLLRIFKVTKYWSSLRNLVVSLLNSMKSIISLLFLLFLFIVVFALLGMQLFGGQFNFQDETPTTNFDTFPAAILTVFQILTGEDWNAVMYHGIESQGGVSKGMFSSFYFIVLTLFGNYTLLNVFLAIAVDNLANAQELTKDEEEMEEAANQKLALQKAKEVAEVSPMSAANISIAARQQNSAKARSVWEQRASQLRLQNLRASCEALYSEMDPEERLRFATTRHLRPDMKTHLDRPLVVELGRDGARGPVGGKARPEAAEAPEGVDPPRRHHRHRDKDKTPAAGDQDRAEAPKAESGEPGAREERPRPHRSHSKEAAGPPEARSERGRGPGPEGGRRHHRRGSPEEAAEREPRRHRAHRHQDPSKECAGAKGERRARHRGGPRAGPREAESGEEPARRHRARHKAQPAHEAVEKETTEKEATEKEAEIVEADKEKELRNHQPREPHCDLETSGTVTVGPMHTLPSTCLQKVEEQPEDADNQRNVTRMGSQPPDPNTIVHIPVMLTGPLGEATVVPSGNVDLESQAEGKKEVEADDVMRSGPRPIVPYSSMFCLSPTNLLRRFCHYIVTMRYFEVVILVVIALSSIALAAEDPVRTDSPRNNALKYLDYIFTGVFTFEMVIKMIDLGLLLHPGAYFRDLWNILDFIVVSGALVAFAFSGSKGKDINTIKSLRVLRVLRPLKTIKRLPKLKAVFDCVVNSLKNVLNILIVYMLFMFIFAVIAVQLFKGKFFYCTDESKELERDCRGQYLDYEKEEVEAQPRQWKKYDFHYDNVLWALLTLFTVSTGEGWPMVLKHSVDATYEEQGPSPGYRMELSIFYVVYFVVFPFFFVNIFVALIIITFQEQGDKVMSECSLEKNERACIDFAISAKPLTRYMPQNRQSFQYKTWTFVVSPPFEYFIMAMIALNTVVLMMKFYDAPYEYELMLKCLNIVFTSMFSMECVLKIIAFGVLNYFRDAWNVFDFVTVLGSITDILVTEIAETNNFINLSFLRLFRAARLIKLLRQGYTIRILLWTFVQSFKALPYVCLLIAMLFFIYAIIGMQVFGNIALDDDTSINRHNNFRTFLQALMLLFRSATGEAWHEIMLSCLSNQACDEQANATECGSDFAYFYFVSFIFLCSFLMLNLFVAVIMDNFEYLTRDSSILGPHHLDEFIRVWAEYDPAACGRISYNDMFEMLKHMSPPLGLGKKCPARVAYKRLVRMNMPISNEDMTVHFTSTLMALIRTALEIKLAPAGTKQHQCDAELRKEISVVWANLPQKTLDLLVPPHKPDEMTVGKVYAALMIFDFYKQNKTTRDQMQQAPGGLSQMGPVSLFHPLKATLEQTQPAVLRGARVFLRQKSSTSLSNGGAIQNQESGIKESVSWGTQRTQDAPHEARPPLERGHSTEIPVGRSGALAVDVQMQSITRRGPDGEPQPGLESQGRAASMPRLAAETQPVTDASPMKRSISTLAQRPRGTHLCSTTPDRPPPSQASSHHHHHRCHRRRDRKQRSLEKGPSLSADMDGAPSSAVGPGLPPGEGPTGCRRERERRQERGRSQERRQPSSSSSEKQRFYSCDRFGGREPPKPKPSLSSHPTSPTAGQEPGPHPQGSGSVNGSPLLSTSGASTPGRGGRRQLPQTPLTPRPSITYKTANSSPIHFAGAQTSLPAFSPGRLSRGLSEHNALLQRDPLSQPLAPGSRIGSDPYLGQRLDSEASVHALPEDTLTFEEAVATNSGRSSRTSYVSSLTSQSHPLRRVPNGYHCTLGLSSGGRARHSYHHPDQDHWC

In patent US8853418B2, “Cyclopentylpyrazoles as N-type calcium channel blockers” (Janssen Pharmaceutica NV, priority 2012, dated 2014):

Biological target: N-type calcium channel (α1B (Cav2.2), β3 and α2δ subunits) (Homo sapiens, UniProt Q00975)
Assay: Functional Assay: Antagonism of N-Type Calcium Channel (FDSS calcium mobilization, KCl depolarization)
Type: cell-based
Details: read-out: FDSS IC50; HEK cell line, 50 mM KCl depolarization, six-point concentration-response
Procedure: A stable cell line (HEK parent) co-expressing the α1B (Cav2.2), β3 and α2δ subunits of the N-type calcium channel subunits was used. These cells were routinely grown as monolayers in low glucose-containing Dulbecco's Modified Eagle Medium supplemented with 10% FBS, 2 mM L-glutamine, 100 I.U./mL penicillin, 100 μg/mL streptomycin, 400 μg/mL G418 and 200 μg/mL Zeocin (split ratio=1:5). Cells were maintained in 5% CO2 at 37° C. Compounds of Formula (I) were prepared as 10 mM stocks in DMSO from neat compound, if available. Otherwise, the 5 or 10 mM DMSO stock solutions provided in-house were used.
Calcium mobilization responses to KCl depolarization were evaluated by measuring the intensity of calcium-mediated fluorescent signal in the presence of BD Calcium Assay Dye (BD Biosciences, Franklin Lakes, N.J., U.S.A.), utilizing a Functional Drug Screening System (FDSS) by Hamamatsu Corporation (Bridgewater, N.J. U.S.A.).
Twenty-four hr prior to assay, cells were seeded in clear-base poly-D-lysine-coated 384-well plates (BD Biosciences) at a density of 5,000 cells per well in culture medium and grown overnight in 5% CO2 at 37° C. […] Utilizing the FDSS, cells were exposed to representative compounds of Formula (I) at varying concentrations, and intracellular calcium was measured for 5 min prior to the addition of 50 mM KCl for an additional 3 min of measurement. […]

Compound	IC50 [µM]
COc1ccccc1-n1nc2c(c1-c1ccc(Cl)cc1)CC1(C2)O[C@H]2CCCC[C@H]2O1 (stereo partly drawn) [Compound 112, (3aR,7aS)-3′-(4-chlorophenyl)-2′-(2-methoxyphenyl)-2′,3a,4,5,6,6′,7,7a-octahydro-4′H-spiro[1,3-benzodioxole-2,5′-cyclopenta[c]pyrazole]]	0.018
COc1ccccc1-n1nc2c(c1-c1ccc(Cl)cc1)C[C@H](OCC1CCC1)C2 [Compound 84, (5S)-3-(4-chlorophenyl)-5-(cyclobutylmethoxy)-2-(2-methoxyphenyl)-2,4,5,6-tetrahydrocyclopenta[c]pyrazole]	0.06
